Test results published in article PMC3894572 (2013).
Like-named read-outs stand apart in the source and are kept apart here.

The chains behind the UniProt entries cited, without tags or fusion partners. Residues count along the entry.
UniProt P01375, 77-233: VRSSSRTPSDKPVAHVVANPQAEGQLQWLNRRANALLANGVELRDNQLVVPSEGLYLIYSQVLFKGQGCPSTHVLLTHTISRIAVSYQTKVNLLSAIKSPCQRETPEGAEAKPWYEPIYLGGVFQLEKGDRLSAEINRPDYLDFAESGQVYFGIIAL

Columns and labels:
[1] = target: T1, TNF (Homo sapiens, UniProt P01375)
[2] = target: T1, TNF; test: competition

Kd [1]: 0.4 nM | Kd [2]: 0.28 nM
B1: infliximab (antibody, V domains shown)
VH: EVKLEESGGGLVQPGGSMKLSCVASGFIFSNHWMNWVRQSPEKGLEWVAEIRSKSINSATHYAESVKGRFTISRDDSKSAVYLQMTDLRTEDTGVYYCSRNYYGSTYDYWGQGTTLTVSS
VL: DILLTQSPAILSVSPGERVSFSCRASQFVGSSIHWYQQRTNGSPRLLIKYASESMSGIPSRFSGSGSGTDFTLSINTVESEDIADYYCQQSHSWPFTFGSGTNLEVKR
